This assay deals with hNav1.7 (Homo sapiens (Human), UniProt Q15858). The experiment in a line: Tritiated sulfonamide competitive binding to membranes from cells expressing hNav1.7 and the β1 subunit.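 Also: displacement of the tritiated ligand from recombinant cell membranes, read by liquid scintillation counting of filter-bound radioactivity, nonspecific binding defined with 1 µM unlabelled compound.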 The note with it: 100 pM [3H]compound, 18 h, room temperature; inactivated state of NaV1.7 membrane binding; read-out: NaV1.7 Ligand Binding Assay (IC50).

Chains of the proteins cited; added tags and fusions are not shown. A line that says so, or that is headed by a name, gives the form on record, which may keep a tag or linker.
UniProt Q15858, other isoform, or with tags, fused parts or gaps: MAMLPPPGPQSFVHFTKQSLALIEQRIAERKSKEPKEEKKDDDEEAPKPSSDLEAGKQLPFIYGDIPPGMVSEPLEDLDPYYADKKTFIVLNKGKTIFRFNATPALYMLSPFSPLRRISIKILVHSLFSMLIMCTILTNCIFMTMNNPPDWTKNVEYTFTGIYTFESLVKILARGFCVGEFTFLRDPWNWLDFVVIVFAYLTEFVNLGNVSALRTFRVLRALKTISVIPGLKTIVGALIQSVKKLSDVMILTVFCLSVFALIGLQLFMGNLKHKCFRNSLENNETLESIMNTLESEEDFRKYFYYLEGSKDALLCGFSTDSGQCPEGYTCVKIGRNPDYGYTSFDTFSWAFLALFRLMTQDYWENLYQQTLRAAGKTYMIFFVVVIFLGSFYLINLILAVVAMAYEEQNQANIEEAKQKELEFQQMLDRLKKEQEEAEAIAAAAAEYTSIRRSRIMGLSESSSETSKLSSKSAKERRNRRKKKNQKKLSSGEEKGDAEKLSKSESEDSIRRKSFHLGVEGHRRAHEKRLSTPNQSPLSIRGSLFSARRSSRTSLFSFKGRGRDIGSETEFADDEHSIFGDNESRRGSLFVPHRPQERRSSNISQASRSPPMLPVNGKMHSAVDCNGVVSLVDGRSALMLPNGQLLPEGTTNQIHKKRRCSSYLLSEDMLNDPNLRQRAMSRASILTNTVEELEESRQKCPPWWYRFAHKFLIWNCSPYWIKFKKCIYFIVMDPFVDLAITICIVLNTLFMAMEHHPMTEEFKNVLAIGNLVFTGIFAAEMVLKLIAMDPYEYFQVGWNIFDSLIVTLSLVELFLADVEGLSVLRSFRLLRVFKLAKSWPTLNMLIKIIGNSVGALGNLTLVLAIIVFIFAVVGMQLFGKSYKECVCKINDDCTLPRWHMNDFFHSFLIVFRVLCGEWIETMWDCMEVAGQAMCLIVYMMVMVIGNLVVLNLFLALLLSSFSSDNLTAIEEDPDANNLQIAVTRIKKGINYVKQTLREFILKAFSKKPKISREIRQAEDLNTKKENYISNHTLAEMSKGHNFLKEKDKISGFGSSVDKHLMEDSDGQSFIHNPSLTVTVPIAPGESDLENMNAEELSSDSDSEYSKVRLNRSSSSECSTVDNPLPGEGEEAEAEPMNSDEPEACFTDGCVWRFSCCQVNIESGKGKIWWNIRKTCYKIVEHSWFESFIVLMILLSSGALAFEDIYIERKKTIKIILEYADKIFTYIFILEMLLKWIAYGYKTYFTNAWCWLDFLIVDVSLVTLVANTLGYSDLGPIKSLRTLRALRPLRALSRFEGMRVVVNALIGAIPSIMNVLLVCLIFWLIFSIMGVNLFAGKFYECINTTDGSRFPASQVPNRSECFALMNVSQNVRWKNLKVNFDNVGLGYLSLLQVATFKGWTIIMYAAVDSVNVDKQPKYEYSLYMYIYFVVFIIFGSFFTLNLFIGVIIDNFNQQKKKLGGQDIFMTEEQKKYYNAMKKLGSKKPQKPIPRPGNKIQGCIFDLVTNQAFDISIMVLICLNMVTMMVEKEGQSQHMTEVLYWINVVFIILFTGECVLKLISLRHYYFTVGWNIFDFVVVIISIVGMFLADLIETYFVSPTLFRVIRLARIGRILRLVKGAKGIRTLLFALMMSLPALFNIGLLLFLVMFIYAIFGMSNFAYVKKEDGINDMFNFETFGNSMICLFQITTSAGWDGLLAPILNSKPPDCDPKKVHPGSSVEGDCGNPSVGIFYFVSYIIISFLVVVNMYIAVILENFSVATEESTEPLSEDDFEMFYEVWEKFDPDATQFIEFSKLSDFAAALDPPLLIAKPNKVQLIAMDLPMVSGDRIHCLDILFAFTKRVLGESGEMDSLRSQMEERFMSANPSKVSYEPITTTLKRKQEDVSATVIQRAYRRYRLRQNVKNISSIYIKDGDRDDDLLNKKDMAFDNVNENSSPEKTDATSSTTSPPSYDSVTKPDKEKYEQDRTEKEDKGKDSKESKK

The term IC50 denotes the midpoint of a concentration-inhibition curve. With `O=S(=O)(Nc1nnc2cc(OCC34CC5CC(CC(C5)C3)C4)c(Br)cn12)N1CCOCC1` [Example 9], the concentration for half-maximal inhibition (IC50) is 206 nM.

Take `COc1ncccc1-c1cn2c(NS(C)(=O)=O)nnc2cc1OCC12CC3CC(CC(C3)C1)C2` [Example 10, N-(7-(adamantan-1-ylmethoxy)-6-(2-methoxypyridin-3-yl)-[1,2,4]-triazolo[4,3-a]pyridin-3-yl)methanesulfonamide]: the IC50 worked out at 637 nM.

Consider `CS(=O)(=O)Nc1nnc2cc(OCC34CC5CC(CC(C5)C3)C4)c(C3=CCCC3)cn12` [Example 12, N-(7-(adamantan-1-ylmethoxy)-6-(cyclopent-1-en-1-yl)-[1,2,4]triazolo[4,3-a]pyridin-3-yl)methanesulfonamide], for which the IC50 was 544 nM.

On to `CC1(C)[C@H]2CC[C@H](COc3cc4nnc(NS(=O)(=O)C5CC5)n4cc3C3CC3)[C@@H]1C2` [Example 29, N-(6-cyclopropyl-7-(((1S,2S,5S)-6,6-dimethylbicyclo[3.1.1]-heptan-2-yl)methoxy)-[1,2,4]triazolo[4,3-a]pyridin-3-yl)cyclopropanesulfonamide], for which the IC50 turned out to be 3.39 nM.

In the case of `COc1ncccc1-c1cn2c(NS(C)(=O)=O)nnc2cc1OC[C@H]1CC[C@H](C)CC1` [Example 34], the IC50 amounted to 133 nM.

For `O=S(=O)(Nc1nnc2cc(COc3cc(Cl)cc(OC(F)(F)F)c3)c(C3CC3)cn12)N1CCC1` [Example 44], the IC50 was 7.33 nM.

In the case of `CS(=O)(=O)Nc1nnc2cc(COc3ccc(Cl)c(C(F)(F)F)c3)c(C3CC3)cn12` [Example 45, N-(7-((4-chloro-3-(trifluoromethyl)phenoxy)methyl)-6-cyclopropyl-[1,2,4]triazolo[4,3-a]pyridin-3-yl)methanesulfonamide], the IC50 was found to be 7.15 nM.

Regarding `O=S(=O)(Nc1nnc2cc(COc3ccc(Cl)c(C(F)(F)F)c3)c(C3CC3)cn12)C1CC1` [Example 46, N-(7-((4-chloro-3-(trifluoromethyl)phenoxy)methyl)-6-cyclopropyl-[1,2,4]triazolo[4,3-a]pyridin-3-yl)cyclopropanesulfonamide], the IC50 came to 10.8 nM.

Regarding `O=S(=O)(Nc1nnc2cc(OCC34CC5CC(CC(C5)C3)C4)c(Br)cn12)N1CCOCC1` [Example 64, N-(7-((3r,5r,7r)-adamantan-1-ylmethoxy)-6-bromo-[1,2,4]triazolo-[4,3-a]pyridin-3-yl)morpholine-4-sulfonamide], the IC50 came out at 210 nM.

For `COc1ncccc1-c1cn2c(NS(C)(=O)=O)nnc2cc1OCC12CC3CC(CC(C3)C1)C2` [Example 65, N-(7-((3r,5r,7r)-adamantan-1-ylmethoxy)-6-(2-methoxypyridin-3-yl)-[1,2,4]triazolo[4,3-a]pyridin-3-yl)methanesulfonamide], the IC50 is 640 nM.

For `CS(=O)(=O)Nc1nnc2cc(OCC34CC5CC(CC(C5)C3)C4)c(C3=CCCC3)cn12` [Example 67], the IC50 is 540 nM.

For the compound `O=S(=O)(Nc1nnc2cc(OCC3CC4C5CCC(C5)C4C3)c(C3CC3)cn12)C1CC1` (centres unmarked) [Example 81], the half-inhibitory concentration (IC50) came out at 4 nM.

As to `CC1(C)[C@H]2CC[C@H](COc3cc4nnc(NS(=O)(=O)C5CC5)n4cc3C3CC3)[C@@H]1C2` [Example 84], the 50% inhibitory concentration (IC50) turned out to be 3 nM.

On to `COc1ncccc1-c1cn2c(NS(C)(=O)=O)nnc2cc1OC[C@H]1CC[C@H](C)CC1` [Example 89], for which the IC50 was 130 nM.

For `O=S(=O)(Nc1nnc2cc(COc3cc(Cl)cc(OC(F)(F)F)c3)c(C3CC3)cn12)N1CCC1` [Example 99, N-(7-((3-chloro-5-(trifluoromethoxy)phenoxy)methyl)-6-cyclopropyl-[1,2,4]triazolo[4,3-a]pyridin-3-yl)azetidine-1-sulfonamide], the half-maximal inhibitory concentration (IC50) came out at 7 nM.

For the compound `CS(=O)(=O)Nc1nnc2cc(COc3ccc(Cl)c(C(F)(F)F)c3)c(C3CC3)cn12` [Example 100, N-(7-((4-chloro-3-(trifluoromethyl)phenoxy)methyl)-6-cyclopropyl-[1,2,4]triazolo[4,3-a]pyridin-3-yl)methanesulfonamide], the IC50 is 7 nM.

As to `O=S(=O)(Nc1nnc2cc(COc3ccc(Cl)c(C(F)(F)F)c3)c(C3CC3)cn12)C1CC1` [Example 101, N-(7-((4-chloro-3-(trifluoromethyl)phenoxy)methyl)-6-cyclopropyl-[1,2,4]triazolo[4,3-a]pyridin-3-yl)cyclopropanesulfonamide], the IC50 turned out to be 11 nM.

For the origin of these results see patent US9550775B2, “Substituted triazolopyridines and methods of use thereof” (GENENTECH, INC., priority 2013, dated 2017).
